Test: Chlorine dioxide compatibility: ClO2 decrease in 200 ppm ClO2 test samples containing an additive (UV/Vis absorption or titration)
Type: physicochemical
Settings: Table 3; 200 ppm ClO2 test sample, single additive at listed wt. %; interpolated to 8 hours

## OCCN(CCO)CCO
  ClO2 decrease @ 8 hrs: 96%

From patent publication US9101562B2, “Additives for chlorine dioxide-containing compositions” (BASF CORPORATION, priority 2010, dated 2015)
